Laboratory results reported in patent US20230018670A1.

Target: T1, B7H3 on human melanoma and pediatric cancer cell lines (human) (UniProt Q5ZPR3)
T1 sequence (looked up): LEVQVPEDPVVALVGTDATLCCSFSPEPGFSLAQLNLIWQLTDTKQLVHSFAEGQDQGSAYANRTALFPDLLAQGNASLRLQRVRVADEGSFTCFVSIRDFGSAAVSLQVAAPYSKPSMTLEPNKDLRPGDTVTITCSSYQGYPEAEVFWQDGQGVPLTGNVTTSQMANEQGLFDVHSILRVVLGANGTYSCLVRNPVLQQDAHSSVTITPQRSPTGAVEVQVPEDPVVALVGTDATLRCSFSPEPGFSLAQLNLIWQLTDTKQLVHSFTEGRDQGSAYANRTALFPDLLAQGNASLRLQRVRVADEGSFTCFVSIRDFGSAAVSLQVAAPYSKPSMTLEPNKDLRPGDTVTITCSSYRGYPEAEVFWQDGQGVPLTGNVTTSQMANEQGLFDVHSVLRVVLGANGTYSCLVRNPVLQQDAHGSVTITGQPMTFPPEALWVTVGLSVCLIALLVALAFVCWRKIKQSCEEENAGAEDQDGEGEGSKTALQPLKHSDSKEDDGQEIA
Assay: flow cytometry on M21 cells (human melanoma, GD2+ B7H3+; GD2 arm may add), 1 ug antibody per million cells, GAH PE

B1: Invenra B7H3 I7-01xGD2-2 (bispecific antibody, V domains shown)
VL 1: DIQMTQSPSSLSASVGDRVTITCRASQSVSSAVAWYQQKPGKAPKLLIYSASSLYSGVPSRFSGSRSGTDFTLTISSLQPEDFATYYCQQSGRSLYTFGQGTKVEIK
VH 1: EVQLVESGGGLVQPGGSLRLSCAASGFTFSTYYIHWVRQAPGKGLEWVAWIHPSGKYTYYADSVKGRFTISADTSKNTAYLQMNSLRAEDTAVYYCARHYQVGAMDYWGQGTLVTVSS
VH 2: EVQLVESGGGLVQPGGSLRLSCAASGFSFTGYNMNWVRQAPGKGLEWVAAIDPYYGGTYYADSVKGRFTISADTSKNTAYLQMNSLRAEDTAVYYCARGMEYWGQGTLVTVSS
VL 2: DIQMTQSPSSLSASVGDRVTITCRSSQSLVHRNGNTYLHWYQQKPGKAPKLLIHKVSNRFSGVPSRFSGSGSGTDFTLTISSLQPEDFATYYCSQSTHVPPLTFGQGTKVEIK
  MFI: 362 MFI
